# According to US4446141A, “Hypotensive piperidine derivatives” (priority 1978, dated 1984):
# Legend:
# male dd-strain mice [1] = assay: Experiment 1 Acute toxicity (number of deaths); conditions: 3 mice, 7 days; for Number of Death I.P.: 200 mg/kg i.p.; for Number of Death P.O.: 1000 mg/kg p.o.
# male dd-strain mice [2] = assay: Experiment 2 Acute toxicity (LD50); conditions: 7 days
# blood pressure [3] = assay: Experiment 4 Hypotensive action, changes in blood pressure with time in anesthetized rats; conditions: average of six rats, pressure before = 0
# blood pressure [4] = assay: Experiment 6 Dosage-reaction curve, spontaneously hypertensive rats; type: in vivo; conditions: SHR, average of five rats
# blood pressure [5] = assay: Experiment 5 Changes in blood pressure due to continuous administration, DOCA-NaCl loaded hypertensive rats; conditions: 30 mg/kg oral once a day, immediately before administration 185
# blood pressure [6] = assay: Experiment 5 Changes in blood pressure due to continuous administration, spontaneously hypertensive rats; conditions: SHR, 30 mg/kg oral once a day, immediately before administration 197
# blood pressure [7] = assay: Experiment 6 Dosage-reaction curve, DOCA-NaCl loaded hypertensive rats; type: in vivo, DOCA-sodium chloride loaded hypertensive rats; conditions: average of five rats
compound,measurement,setting,value
COc1ccc(C(=O)C(C)N2CCC(n3c(=O)[nH]c4ccccc43)CC2)cc1OC (stereo not shown),Number of Death I.P.,male dd-strain mice [1],0
same,Number of Death P.O.,male dd-strain mice [1],0
CC(C(=O)c1ccc(O)c(O)c1)N1CCC(n2c(=O)[nH]c3ccccc32)CC1 (stereo not shown),Number of Death I.P.,male dd-strain mice [1],0
same,Number of Death P.O.,male dd-strain mice [1],0
O=c1[nH]c2ccccc2n1C1CCN(CC(O)c2ccc3ccccc3c2)CC1 (stereo not shown),Number of Death I.P.,male dd-strain mice [1],0
same,Number of Death P.O.,male dd-strain mice [1],0
COc1ccc(C(=O)CN2CCC(n3c(=O)[nH]c4ccccc43)CC2)cc1OC,LD50 Intraperitoneal administration,male dd-strain mice [2],485 mg/kg
same,LD50 Oral administration,male dd-strain mice [2],> 6000 mg/kg
same,LD50 Subcutaneous administration,male dd-strain mice [2],> 3000 mg/kg
same,change in blood pressure,blood pressure [3]; 10 min. after 30 mg/kg i.p.,-23 mmHg
same,change in blood pressure,blood pressure [3]; 30 min. after 30 mg/kg i.p.,-44 mmHg
same,change in blood pressure,blood pressure [3]; 1 hr. after 30 mg/kg i.p.,-50 mmHg
same,change in blood pressure,blood pressure [3]; 2 hrs. after 30 mg/kg i.p.,-56 mmHg
same,change in blood pressure,blood pressure [3]; 3 hrs. after 30 mg/kg i.p.,-54 mmHg
same,change in blood pressure,blood pressure [3]; 4 hrs. after 30 mg/kg i.p.,-51 mmHg
same,maximum reduction in blood pressure,blood pressure [4]; 0.5 mg/kg oral,-29 mmHg
same,maximum reduction in blood pressure,blood pressure [4]; 1.0 mg/kg oral,-34 mmHg
same,maximum reduction in blood pressure,blood pressure [4]; 10 mg/kg oral,-50 mmHg
same,maximum reduction in blood pressure,blood pressure [4]; 50 mg/kg oral,-57 mmHg
same,blood pressure,blood pressure [5]; 1st day,140 mmHg
same,blood pressure,blood pressure [5]; 4th day,140 mmHg
same,blood pressure,blood pressure [5]; 9th day,144 mmHg
same,Number of Death I.P.,male dd-strain mice [1],0
same,Number of Death P.O.,male dd-strain mice [1],0
same,blood pressure,blood pressure [6]; 1st day,158 mmHg
same,blood pressure,blood pressure [6]; 4th day,160 mmHg
same,blood pressure,blood pressure [6]; 9th day,140 mmHg
same,maximum reduction in blood pressure,blood pressure [7]; 0.1 mg/kg oral,-12 mmHg
same,maximum reduction in blood pressure,blood pressure [7]; 1.0 mg/kg oral,-29 mmHg
same,maximum reduction in blood pressure,blood pressure [7]; 10 mg/kg oral,-46 mmHg
same,maximum reduction in blood pressure,blood pressure [7]; 50 mg/kg oral,-72 mmHg
CCn1c(=O)n(C2CCN(CC(O)c3ccc4c(c3)OCO4)CC2)c2ccccc21 (stereo not shown),Number of Death I.P.,male dd-strain mice [1],0
same,Number of Death P.O.,male dd-strain mice [1],0
CC(C(O)c1cccc(O)c1)N1CCC(n2c(=O)[nH]c3ccccc32)CC1 (stereo not shown),LD50 Intraperitoneal administration,male dd-strain mice [2],500 mg/kg
same,LD50 Oral administration,male dd-strain mice [2],2500 mg/kg
same,LD50 Subcutaneous administration,male dd-strain mice [2],> 1000 mg/kg
same,change in blood pressure,blood pressure [3]; 30 min. after 30 mg/kg i.p.,-48 mmHg
same,change in blood pressure,blood pressure [3]; 1 hr. after 30 mg/kg i.p.,-47 mmHg
same,change in blood pressure,blood pressure [3]; 2 hrs. after 30 mg/kg i.p.,-39 mmHg
same,change in blood pressure,blood pressure [3]; 3 hrs. after 30 mg/kg i.p.,-42 mmHg
same,change in blood pressure,blood pressure [3]; 4 hrs. after 30 mg/kg i.p.,-48 mmHg
same,Number of Death I.P.,male dd-strain mice [1],0
same,Number of Death P.O.,male dd-strain mice [1],0
O=C(CN1CCC(n2c(=O)[nH]c3ccccc32)CC1)c1ccc2c(c1)OCO2,Number of Death I.P.,male dd-strain mice [1],0
same,Number of Death P.O.,male dd-strain mice [1],0
COc1ccc(C(O)CN2CCC(n3c(=O)[nH]c4ccccc43)CC2)cc1OC (stereo not shown),Number of Death I.P.,male dd-strain mice [1],0
same,Number of Death P.O.,male dd-strain mice [1],0
COc1ccc(C(O)C(C)N2CCC(n3c(=O)n(C(C)=O)c4ccccc43)CC2)cc1OC (stereo not shown),Number of Death I.P.,male dd-strain mice [1],0
same,Number of Death P.O.,male dd-strain mice [1],0
CC(C(O)c1ccc2c(c1)OCO2)N1CCC(n2c(=O)[nH]c3ccccc32)CC1 (stereo not shown),Number of Death I.P.,male dd-strain mice [1],0
same,Number of Death P.O.,male dd-strain mice [1],0
COc1ccc(CCN2CCC(n3c(=O)[nH]c4ccccc43)CC2)cc1OC,Number of Death I.P.,male dd-strain mice [1],0
same,Number of Death P.O.,male dd-strain mice [1],0
COc1cc(C(O)CN2CCC(n3c(=O)[nH]c4ccccc43)CC2)cc(OC)c1OC (stereo not shown),Number of Death I.P.,male dd-strain mice [1],0
same,Number of Death P.O.,male dd-strain mice [1],0

# This is a selection: effects in other tests are not listed, and their absence says nothing.
